# Biological target: recombinant HSF1 DNA-binding domain (DBD) (Homo sapiens, UniProt Q00613)
# By UniProt entry, the sequences of proteins in these tests, tags left out. Where a name states a change or a piece, a line headed by the entry shows the natural chain unless it says otherwise.
# UniProt Q00613: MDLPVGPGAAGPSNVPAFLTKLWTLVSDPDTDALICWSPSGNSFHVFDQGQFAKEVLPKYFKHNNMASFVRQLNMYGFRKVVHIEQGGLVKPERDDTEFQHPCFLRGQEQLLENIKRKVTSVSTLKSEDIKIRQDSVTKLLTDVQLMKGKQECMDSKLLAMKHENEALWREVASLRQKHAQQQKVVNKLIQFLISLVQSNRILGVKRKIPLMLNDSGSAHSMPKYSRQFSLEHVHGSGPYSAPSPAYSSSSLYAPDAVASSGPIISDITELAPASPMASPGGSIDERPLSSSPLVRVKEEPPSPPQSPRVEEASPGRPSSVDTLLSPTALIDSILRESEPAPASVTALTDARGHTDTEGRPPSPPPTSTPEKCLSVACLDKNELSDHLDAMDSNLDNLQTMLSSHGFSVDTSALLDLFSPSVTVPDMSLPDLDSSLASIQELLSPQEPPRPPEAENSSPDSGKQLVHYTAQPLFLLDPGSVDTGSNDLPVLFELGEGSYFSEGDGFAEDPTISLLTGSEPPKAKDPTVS
# Assay: Differential Scanning Fluorimetry (DSF), HSF1 DBD melting temperature
# Settings: Table 3; 5 μM HSF1 DBD, 25PM Compound; positive = stabilizes, negative = destabilizes HSF1
row,Substance,ΔTm [°C]
1,"1-(4-cyano-3-(2-morpholinoethoxy)phenyl)-3-(1,1-dioxidobenzo[b]thiophen-6-yl)urea",2.94
2,1-(4-chloro-3-(trifluoromethyl)phenyl)-3-(4-cyanocyclohexyl)urea,-9.91

# Reference: patent publication US20240317727A1 (Duke University, priority 2018, published 2024)
